For one compound, IC50 results are on record in article PMC5666424, “Marine-Derived 2-Aminoimidazolone Alkaloids. Leucettamine B-Related Polyandrocarpamines Inhibit Mammalian and Protozoan DYRK & CLK Kinases” (Marine Drugs, 2017).

Sequences of proteins named here, by UniProt entry; tags and fusion partners are left off. A change or cut given only in a name is not applied to a line headed by its entry.
UniProt O35493: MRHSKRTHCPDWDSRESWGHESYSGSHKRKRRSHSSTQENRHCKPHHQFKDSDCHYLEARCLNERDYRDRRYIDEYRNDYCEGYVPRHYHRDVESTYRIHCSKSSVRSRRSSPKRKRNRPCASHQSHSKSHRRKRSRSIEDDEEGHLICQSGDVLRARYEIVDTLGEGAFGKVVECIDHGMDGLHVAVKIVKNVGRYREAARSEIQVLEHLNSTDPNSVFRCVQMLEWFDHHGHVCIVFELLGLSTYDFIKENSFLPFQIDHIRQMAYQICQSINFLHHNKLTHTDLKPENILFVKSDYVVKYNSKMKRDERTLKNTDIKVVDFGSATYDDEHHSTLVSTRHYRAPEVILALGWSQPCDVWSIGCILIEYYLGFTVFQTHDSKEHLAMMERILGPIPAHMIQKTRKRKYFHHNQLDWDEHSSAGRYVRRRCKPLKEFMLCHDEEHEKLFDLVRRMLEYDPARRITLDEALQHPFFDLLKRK

For one test, the target named is T1, DYRK3 (Homo sapiens, UniProt O43781).
T1 sequence (O43781 1-588): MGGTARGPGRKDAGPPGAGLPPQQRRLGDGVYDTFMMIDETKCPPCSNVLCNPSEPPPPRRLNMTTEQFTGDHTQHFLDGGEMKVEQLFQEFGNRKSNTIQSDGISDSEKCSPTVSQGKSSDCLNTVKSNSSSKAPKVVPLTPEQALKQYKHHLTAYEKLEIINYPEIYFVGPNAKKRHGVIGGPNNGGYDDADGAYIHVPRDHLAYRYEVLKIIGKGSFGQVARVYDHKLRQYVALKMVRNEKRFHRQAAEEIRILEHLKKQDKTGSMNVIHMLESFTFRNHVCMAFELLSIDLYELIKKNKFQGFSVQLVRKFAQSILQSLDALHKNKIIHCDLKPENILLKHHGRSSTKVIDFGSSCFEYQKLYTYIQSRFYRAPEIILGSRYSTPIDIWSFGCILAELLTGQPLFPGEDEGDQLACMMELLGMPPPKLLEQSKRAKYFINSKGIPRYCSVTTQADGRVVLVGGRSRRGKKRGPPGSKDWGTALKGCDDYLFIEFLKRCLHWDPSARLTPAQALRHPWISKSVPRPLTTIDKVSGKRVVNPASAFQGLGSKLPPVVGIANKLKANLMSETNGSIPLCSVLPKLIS
The experiment in a line: Protein kinase assay. Format: biochemical. The note with it: 15 μmol/L ATP.

A further test deals with CLK4 (Mus musculus, UniProt O35493). As to the kind of experiment: Protein kinase assay. The note with it: read-out: IC50 CLK4; 15 μmol/L ATP.

Each structure is given as a SMILES string.

`O=C1NC(Nc2ccccc2)=N/C1=C\c1ccc2c(c1)OCO2` [Leucettine L41, reference compound]: the IC50 on DYRK3 came to 420 nM; at CLK4 it was 31 nM.
